Measured values: publication PMC10141604, “Small-Molecule Inhibition of Androgen Receptor Dimerization as a Strategy against Prostate Cancer” (ACS Central Science, 2023)

Tested on: endogenous PSA and AR in LNCaP cells
Assay: Western blot of PSA and AR in LNCaP cells
Format: cell-based
Details: LNCaP, 0.1, 1, 10 μM, 10 nM DHT, 48 h

**Q.** CNC(=O)c1ccc(N2C(=S)N(c3ccc(C#N)c(C(F)(F)F)c3)C(=O)C2(C)C)cc1F [Enz, enzalutamide, reference compound] was tested. Which “endogenous PSA production (Western blot)” value did it give?
**A.** remarkably inhibited
